Target: NaGR (A622) (Nicotiana tabacum, UniProt P52579)
Details: ternary complex with nicotinic acid N-glucoside; HEPES pH 7.5

Sequences of proteins named here, by UniProt entry; tags and fusion partners are left off. Residues count along the entry.
UniProt P52579, 6-310 limits assumed: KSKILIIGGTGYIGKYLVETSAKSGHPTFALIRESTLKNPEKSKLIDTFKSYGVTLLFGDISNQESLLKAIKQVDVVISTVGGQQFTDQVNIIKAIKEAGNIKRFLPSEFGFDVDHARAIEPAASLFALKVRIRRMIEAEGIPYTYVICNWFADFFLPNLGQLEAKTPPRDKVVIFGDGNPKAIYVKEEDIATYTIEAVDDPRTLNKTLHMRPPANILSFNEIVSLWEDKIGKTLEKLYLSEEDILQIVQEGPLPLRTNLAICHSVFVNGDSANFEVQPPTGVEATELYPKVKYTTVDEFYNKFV

Structure (SMILES): NC(=O)c1ccc[n+]([C@@H]2O[C@H](COP(=O)(O)OP(=O)(O)OC[C@H]3O[C@@H](n4cnc5c(N)ncnc54)[C@H](OP(=O)(O)O)[C@@H]3O)[C@@H](O)[C@H]2O)c1 [NADP+]
- X-ray crystallography, co-crystallisation, 1.3 Å: cofactor NADP^+ bound between the Rossmann fold and the substrate binding domain

— publication PMC13184244, “Nicotine biosynthesis is completed by cryptic activating glucosylation” (Nature Communications, 2026)
